Values quoted from earlier work, collected in US8394607B2, “Anti-CD22 antibodies and immunoconjugates and methods of use” (Genentech, Inc., priority 2006, dated 2013).

Settings: human, in vivo; cited from earlier work

B1: ZEVALIN (conjugate, chains of the INN, looked up)
heavy: QAYLQQSGAELVRPGASVKMSCKASGYTFTSYNMHWVKQTPRQGLEWIGAIYPGNGDTSYNQKFKGKATLTVDKSSSTAYMQLSSLTSEDSAVYFCARVVYYSNSYWYFDVWGTGTTVTVSAPSVYPLAPVCGDTTGSSVTLGCLVKGYFPEPVTLTWNSGSLSSGVHTFPAVLQSDLYTLSSSVTVTSSTWPSQSITCNVAHPASSTKVDKKIEPRGPTIKPCPPCKCPAPNLLGGPSVFIFPPKIKDVLMISLSPIVTCVVVDVSEDDPDVQISWFVNNVEVHTAQTQTHREDYNSTLRVVSALPIQHQDWMSGKEFKCKVNNKDLPAPIERTISKPKGSVRAPQVYVLPPPEEEMTKKQVTLTCMVTDFMPEDIYVEWTNNGKTELNYKNTEPVLDSDGSYFMYSKLRVEKKNWVERNSYSCSVVHEGLHNHHTTKSFSR
light: QIVLSQSPAILSASPGEKVTMTCRASSSVSYMHWYQQKPGSSPKPWIYAPSNLASGVPARFSGSGSGTSYSLTISRVEAEDAATYYCQQWSFNPPTFGAGTKLELKRADAAPTVFIFPPSDEQLKSGTASVVCLLNNFYPREAKVQWKVDNALQSGNSQESVTEQDSKDSTYSLSSTLTLSKADYEKHKVYACEVTHQGLSSPVTKSFN
modifications: 90Y tiuxetan chelate
adverse effect of administration: severe and prolonged cytopenias in most patients
